pKi: −log10 of the molar value.
The molecules below were run against Recombinant heterodimeric HCV NS3/NS4A protease (strain 1a) (Hepatitis C virus genotype 1a, UniProt P27958) (assay: Spectrophotometric assay for HCV serine protease inhibitory activity (chromogenic ester substrates)). Conditions: Table 3, sulfone compounds; HCV serine protease; read-out: Ki* range.
Type: biochemical

Protein sequences, listed by entry. Tags and fused reporters are not part of them. Residues count along the entry.
UniProt P27958, 1027-1657: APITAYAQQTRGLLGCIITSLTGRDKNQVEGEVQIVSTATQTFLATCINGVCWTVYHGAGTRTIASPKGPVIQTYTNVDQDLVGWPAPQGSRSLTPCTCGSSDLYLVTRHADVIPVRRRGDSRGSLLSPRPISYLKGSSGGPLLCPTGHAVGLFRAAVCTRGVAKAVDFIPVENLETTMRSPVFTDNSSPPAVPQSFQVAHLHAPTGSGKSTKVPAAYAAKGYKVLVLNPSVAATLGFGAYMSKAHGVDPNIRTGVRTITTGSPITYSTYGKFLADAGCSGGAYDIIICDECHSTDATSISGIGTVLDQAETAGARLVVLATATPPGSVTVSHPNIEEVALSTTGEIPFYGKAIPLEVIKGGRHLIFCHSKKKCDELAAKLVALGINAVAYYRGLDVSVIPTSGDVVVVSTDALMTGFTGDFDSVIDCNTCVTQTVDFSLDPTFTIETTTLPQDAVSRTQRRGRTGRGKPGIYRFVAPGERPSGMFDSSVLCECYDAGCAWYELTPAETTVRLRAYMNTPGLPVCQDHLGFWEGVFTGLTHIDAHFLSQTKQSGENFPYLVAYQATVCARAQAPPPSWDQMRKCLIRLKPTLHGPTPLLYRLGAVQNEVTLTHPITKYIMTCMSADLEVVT
UniProt P27958, 1658-1711: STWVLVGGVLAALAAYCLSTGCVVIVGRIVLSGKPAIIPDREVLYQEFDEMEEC

| SMILES | pKi |
| --- | --- |
| CC(C)CCS(=O)(=O)CC1(NC(=O)N[C@H](C(=O)N2C[C@H](OCc3ccccc3)C[C@H]2C(=O)NC(CC2CCC2)C(=O)C(N)=O)C2CCCCC2)CCCCC1 (stereo partly shown) [Compound 310] | > 7.12 |
| CC(C)(C)[C@H](NC(=O)NC1(C2CCCS2(=O)=O)CCCCC1)C(=O)N1C[C@H]2[C@@H]([C@H]1C(=O)NC(CCC(F)(F)F)C(=O)C(N)=O)C2(C)C (stereo partly shown) [Compound 311] | > 7.12 |
| C#CCCC(NC(=O)[C@@H]1[C@@H]2[C@H](CN1C(=O)[C@@H](NC(=O)NC1(C3CCCS3(=O)=O)CCCCC1)C(C)(C)C)C2(C)C)C(=O)C(=O)NCC=C (stereo partly shown) [Compound 312] | > 7.12 |
| CC1(C)[C@@H]2[C@@H](C(=O)NC(CC3CCC3)C(=O)C(N)=O)N(C(=O)[C@@H](NC(=O)NC3(CS(=O)(=O)C(C)(C)C)CCCCC3)C3CCCCC3)C[C@@H]21 (stereo partly shown) [Compound 313] | > 7.12 |
| CC1(C)[C@@H]2[C@@H](C(=O)NC(CC3CCC3)C(=O)C(N)=O)N(C(=O)[C@@H](NC(=O)NC3(CS(=O)(=O)C(C)(C)C)CCCCC3)C3Cc4ccccc4C3)C[C@@H]21 (stereo partly shown) [Compound 314] | > 7.12 |
| C=CCNC(=O)C(=O)C(CC1CCC1)NC(=O)[C@@H]1[C@@H]2[C@H](CN1C(=O)[C@@H](NC(=O)NC1(CS(=O)(=O)C(C)(C)C)CCCCC1)C1CCCCC1)C2(C)C (stereo partly shown) [Compound 315] | > 7.12 |
| C=CCNC(=O)C(=O)C(CCC(F)(F)F)NC(=O)[C@@H]1[C@@H]2[C@H](CN1C(=O)[C@@H](NC(=O)NC1(C3CCCS3(=O)=O)CCCCC1)C(C)(C)C)C2(C)C (stereo partly shown) [Compound 316] | > 7.12 |
| C=CCNC(=O)C(=O)C(CCC)NC(=O)[C@@H]1[C@@H]2[C@H](CN1C(=O)[C@@H](NC(=O)NC1(C3CCCS3(=O)=O)CCCCC1)C(C)(C)C)C2(C)C (stereo partly shown) [Compound 317] | > 7.12 |
| C=CCNC(=O)C(=O)C(CC1CCC1)NC(=O)[C@@H]1[C@@H]2[C@H](CN1C(=O)[C@@H](NC(=O)NC1(CS(=O)(=O)C(C)(C)C)CCCCC1)C1Cc3ccccc3C1)C2(C)C (stereo partly shown) [Compound 318] | > 7.12 |
| CC(C)CCS(=O)(=O)CC1(NC(=O)N[C@H](C(=O)N2C[C@H](O)C[C@H]2C(=O)NC(CC2CCC2)C(=O)C(N)=O)C2CCCCC2)CCCCC1 (stereo partly shown) [Compound 319] | > 7.12 |
| C#CCCC(NC(=O)[C@@H]1[C@@H]2[C@H](CN1C(=O)[C@@H](NC(=O)NC1(CS(=O)(=O)C(C)(C)C)CCCCC1)C(C)(C)C)C2(C)C)C(=O)C(=O)NCC (stereo partly shown) [Compound 320] | > 7.12 |
| C#CCCC(NC(=O)[C@@H]1[C@@H]2[C@H](CN1C(=O)[C@@H](NC(=O)NC1(CS(=O)(=O)C(C)(C)C)CCCCC1)C(C)(C)C)C2(C)C)C(=O)C(=O)NCCCC (stereo partly shown) [Compound 321] | 6.60 to 7.12 |
| C#CCCC(NC(=O)[C@@H]1[C@@H]2[C@H](CN1C(=O)[C@@H](NC(=O)NC1(CS(=O)(=O)C(C)(C)C)CCCCC1)C(C)(C)C)C21CC1)C(=O)C(N)=O (stereo partly shown) [Compound 322] | 6.60 to 7.12 |
| C#CCCC(NC(=O)[C@@H]1[C@@H]2[C@H](CN1C(=O)[C@@H](NC(=O)NC1(CS(=O)(=O)C(C)(C)C)CCCCC1)C(C)(C)C)C21CCCC1)C(=O)C(N)=O (stereo partly shown) [Compound 323] | > 7.12 |
| C#CCCC(NC(=O)[C@@H]1[C@@H]2[C@H](CN1C(=O)[C@@H](NC(=O)C1(CS(=O)(=O)C(C)(C)C)CCCCC1)C(C)(C)C)C2(C)C)C(=O)C(=O)NCC=C (stereo partly shown) [Compound 324] | > 7.12 |
| C=CCNC(=O)C(=O)C(CC1CC1)NC(=O)[C@@H]1[C@@H]2[C@H](CN1C(=O)[C@@H](NC(=O)NC1(CS(=O)(=O)C3CCCC3)CCCCC1)C(C)(C)C)C2(C)C (stereo partly shown) [Compound 325] | > 7.12 |

| SMILES | pKi |
| --- | --- |
| C#CCCC(NC(=O)[C@@H]1[C@@H]2[C@H](CN1C(=O)[C@@H](NC(=O)NC1(CS(=O)(=O)C3CCCC3)CCCCC1)C(C)(C)C)C2(C)C)C(=O)C(=O)NCC=C (stereo partly shown) [Compound 326] | > 7.12 |
| C=CCNC(=O)C(=O)C(CC1CC1)NC(=O)[C@@H]1[C@@H]2[C@H](CN1C(=O)[C@@H](NC(=O)NC1(CS(=O)(=O)C(C)(C)CC)CCCCC1)C(C)(C)C)C2(C)C (stereo partly shown) [Compound 327] | < 6.60 |
| CC(C)C(NC(=O)N[C@H](C(=O)N1C[C@H]2[C@@H]([C@H]1C(=O)NC(CC1CCC1)C(=O)C(N)=O)C2(C)C)C(C)(C)C)C1CCCS1(=O)=O (stereo partly shown) [Compound 329] | > 7.12 |
| CC(C)C(NC(=O)N[C@H](C(=O)N1C[C@H]2[C@@H]([C@H]1C(=O)NC(CC1CCC1)C(=O)C(N)=O)C2(C)C)C(C)(C)C)C1CCCS1(=O)=O (stereo partly shown) [Compound 330] | < 6.60 |
| CC(C)C(NC(=O)N[C@H](C(=O)N1C[C@H]2[C@@H]([C@H]1C(=O)NC(CC1CC1)C(=O)C(N)=O)C2(C)C)C(C)(C)C)C1CCCS1(=O)=O (stereo partly shown) [Compound 331] | > 7.12 |
| CC(C)C(NC(=O)N[C@H](C(=O)N1C[C@H]2[C@@H]([C@H]1C(=O)NC(CC1CC1)C(=O)C(N)=O)C2(C)C)C(C)(C)C)C1CCCS1(=O)=O (stereo partly shown) [Compound 332] | < 6.60 |
| C=CCNC(=O)C(=O)C(CCC)NC(=O)[C@@H]1[C@@H]2[C@H](CN1C(=O)[C@@H](NC(=O)NC(C(C)C)C1CCCS1(=O)=O)C(C)(C)C)C2(C)C (stereo partly shown) [Compound 333] | < 6.60 |
| C=CCNC(=O)C(=O)C(CCC)NC(=O)[C@@H]1[C@@H]2[C@H](CN1C(=O)[C@@H](NC(=O)NC(C(C)C)C1CCCS1(=O)=O)C(C)(C)C)C2(C)C (stereo partly shown) [Compound 334] | > 7.12 |
| CC(C)(C)[C@H](NC(=O)NC1(C2CCCS2(=O)=O)CCCCC1)C(=O)N1C[C@H]2[C@@H]([C@H]1C(=O)NC(CC1CCC1)C(=O)C(N)=O)C2(C)C (stereo partly shown) [Compound 335] | > 7.12 |
| CC1(C)[C@@H]2[C@@H](C(=O)NC(CC3CC3)C(=O)C(N)=O)N(C(=O)[C@@H](NC(=O)NC3(C4CCCS4(=O)=O)CCCCC3)C3CCCCC3)C[C@@H]21 (stereo partly shown) [Compound 342] | > 7.12 |
| C=CCNC(=O)C(=O)C(CC1CC1)NC(=O)[C@@H]1[C@@H]2[C@H](CN1C(=O)[C@@H](NC(=O)NC1(C3CCCS3(=O)=O)CCCCC1)C1CCCCC1)C2(C)C (stereo partly shown) [Compound 343] | > 7.12 |
| CC(C)C[C@@](C)(CS(=O)(=O)C(C)(C)C)NC(=O)N[C@H](C(=O)N1C[C@H]2[C@@H]([C@H]1C(=O)NC(CC1CCC1)C(=O)C(N)=O)C2(C)C)C(C)(C)C (stereo partly shown) [Compound 347] | 6.60 to 7.12 |
| C=CCNC(=O)C(=O)C(CC1CC1)NC(=O)[C@@H]1[C@@H]2[C@H](CN1C(=O)[C@@H](NC1(CS(=O)(=O)C(C)(C)C)CCC(F)(F)CC1)C(C)(C)C)C2(C)C (stereo partly shown) [Compound 349] | > 7.12 |
| CC(C)(C)[C@H](NC1(CS(=O)(=O)C(C)(C)C)CCC(F)(F)CC1)C(=O)N1C[C@H]2[C@@H]([C@H]1C(=O)NC(CC1CC1)C(=O)C(N)=O)C2(C)C (stereo partly shown) [Compound 350] | > 7.12 |
| C#CCCC(NC(=O)[C@@H]1[C@@H]2[C@H](CN1C(=O)[C@@H](NC1(CS(=O)(=O)C(C)(C)C)CCC(F)(F)CC1)C(C)(C)C)C2(C)C)C(=O)C(=O)NCC=C (stereo partly shown) [Compound 351] | > 7.12 |

Same assay, conditions: Table 3A; class symbols; read-out: Ki* Range

| SMILES | pKi |
| --- | --- |
| CC(C)(C)[C@H](NC(=O)N[C@H]1CCCC[C@H]1S(=O)(=O)C(C)(C)C)C(=O)N1C[C@H]2[C@@H]([C@H]1C(=O)NC(CC1CCC1)C(=O)C(N)=O)C2(C)C (stereo partly shown) [Compound 397] | 6.60 to 7.12 |
| C=CCNC(=O)C(=O)C(CC1CC1)NC(=O)[C@@H]1[C@@H]2[C@H](CN1C(=O)[C@@H](NC(=O)N[C@H]1CCCC[C@H]1S(=O)(=O)C(C)(C)C)C(C)(C)C)C2(C)C (stereo partly shown) [Compound 398] | < 6.60 |
| C#CCCC(NC(=O)[C@@H]1[C@@H]2[C@H](CN1C(=O)[C@@H](NC(=O)N[C@H]1CCCC[C@H]1S(=O)(=O)C(C)(C)C)C(C)(C)C)C2(C)C)C(=O)C(=O)NCC=C (stereo partly shown) [Compound 399] | 6.60 to 7.12 |
| CC(C)C[C@](C)(CS(=O)(=O)C(C)(C)C)NC(=O)N[C@H](C(=O)N1C[C@H]2[C@@H]([C@H]1C(=O)NC(CC1CCC1)C(=O)C(N)=O)C2(C)C)C1(C)CCCCC1 (stereo partly shown) [Compound 400] | > 7.12 |
| C=CCNC(=O)C(=O)C(CC1CC1)NC(=O)[C@@H]1[C@@H]2[C@H](CN1C(=O)[C@@H](NC(=O)N[C@](C)(CC(C)C)CS(=O)(=O)C(C)(C)C)C1(C)CCCCC1)C2(C)C (stereo partly shown) [Compound 401] | > 7.12 |
| C#CCCC(NC(=O)[C@@H]1[C@@H]2[C@H](CN1C(=O)[C@@H](NC(=O)N[C@](C)(CC(C)C)CS(=O)(=O)C(C)(C)C)C1(C)CCCCC1)C2(C)C)C(=O)C(=O)NCC=C (stereo partly shown) [Compound 402] | > 7.12 |
| C=CCNC(=O)C(=O)C(CCCC)NC(=O)[C@@H]1[C@@H]2[C@H](CN1C(=O)[C@@H](NC(=O)N[C@](C)(CC(C)C)CS(=O)(=O)C(C)(C)C)C1(C)CCCCC1)C2(C)C (stereo partly shown) [Compound 403] | > 7.12 |
| C=CCNC(=O)C(=O)C(CCC)NC(=O)[C@@H]1[C@@H]2[C@H](CN1C(=O)[C@@H](NC(=O)N[C@](C)(CC(C)C)CS(=O)(=O)C(C)(C)C)C1(C)CCCCC1)C2(C)C (stereo partly shown) [Compound 404] | > 7.12 |
| C=CCNC(=O)C(=O)C(CC1CC1)NC(=O)[C@@H]1[C@@H]2[C@H](CN1C(=O)[C@@H](NC(=O)NC1(CS(=O)(=O)C(C)(C)CCC)CCCCC1)C1(C)CCCCC1)C2(C)C (stereo partly shown) [Compound 405] | > 7.12 |
| C=CCNC(=O)C(=O)C(CC1CC1)NC(=O)[C@@H]1[C@@H]2[C@H](CN1C(=O)[C@@H](NC(=O)NC1(CS(=O)(=O)C(C)(C)CCC)CCCCC1)C(C)(C)C)C2(C)C (stereo partly shown) [Compound 406] | > 7.12 |
| CC1([C@H](NC(=O)NC2(CS(=O)(=O)C(C)(C)C)CCCCC2)C(=O)N2C[C@H]3[C@@H]([C@H]2C(=O)NC(CC2CC2)C(=O)C(=O)NCC2CO2)C3(C)C)CCCCC1 (stereo partly shown) [Compound 407] | > 7.12 |
| C=CCNC(=O)C(=O)C(CC1CC1)NC(=O)[C@@H]1[C@@H]2[C@H](CN1C(=O)[C@@H](NC(=O)NC1(CS(=O)(=O)C(C)C)CCCCC1)C1(C)CCCCC1)C2(C)C (stereo partly shown) [Compound 408] | > 7.12 |
| C=CCNC(=O)C(=O)C(CC1CC1)NC(=O)[C@@H]1[C@@H]2[C@H](CN1C(=O)[C@@H](NC(=O)NC1(CS(=O)(=O)C(C)C)CCCCC1)C(C)(C)C)C2(C)C (stereo partly shown) [Compound 409] | > 7.12 |
| CC1([C@H](NC(=O)NC2(CS(=O)(=O)C(C)(C)C)CCCCC2)C(=O)N2C[C@H]3[C@@H]([C@H]2C(=O)NC(CC2CC2)C(=O)C(=O)NCC2CCC2)C3(C)C)CCCCC1 (stereo partly shown) [Compound 410] | > 7.12 |
| CC1([C@H](NC(=O)NC2(CS(=O)(=O)C(C)(C)C)CCCCC2)C(=O)N2C[C@H]3[C@@H]([C@H]2C(=O)NC(CC2CC2)C(=O)C(=O)NCC2CC2)C3(C)C)CCCCC1 (stereo partly shown) [Compound 411] | > 7.12 |

From patent publication US8067379B2, “Sulfur compounds as inhibitors of hepatitis C virus NS3 serine protease” (Schering Corporation, priority 2004, dated 2011)
